Data reported in patent US20120295838A1, “Selective poly-substituted glycine antibiotics and related compositions” (priority 2008, published 2012).
Read-outs that look alike come from different tables or passages of the source.

Experiments:
Assay type in all cases: cell-based
human erythrocytes = experiment: Hemolysis assay
B. subtilis ATCC 6633 = test system: B. subtilis ATCC 6633
Method: (§1) Whereas the preceding generation of molecules was designed to elucidate structure function relationships of specific molecular parameters (chirality, length, hydrophobicity, etc.), another generation compounds were designed explicitly to explore effects on selectivity. Antimicrobial activity of these compounds was tested against bacterial strains E. coli (ATTC 35218) and B. subtilis (ATTC 6633) in cation-adjusted MHB using the microdilution protocols previously described. The sequences, antimicrobial activities, hemolytic activities, and metabolic inhibitory concentrations against NIH 3T3 mouse fibroblast cells are summarized in Table 3 and the rationale of their design is described below.
(§2) Screening antibacterial assays. MICs were determined in 96-well microtiter plates in accordance with CLSI M7-A6 protocols. Peptoid solutions with 50 μL total volume were prepared using 2:1 serial dilutions. 50 i—tL of bacteria inoculum (1×10^6 CFU/mL) prepared in cation-adjusted Mueller-Hinton broth (CAMHB) was added to test wells. Control wells contained 100 μL MHB (no growth) or 50 μL inoculums with 50 μL MHB with no peptoid. […] Reported values were reproducible over three experiments, each containing two parallel trials.
(§3) Antibacterial Assays for Compositions. MICs were determined according to CLSI M7-A6 protocols in a 96-well microtiter plate. In test wells, 50 μL bacterial inoculum (1×10^6 CFU/ml) in cation-adjusted Mueller-Hinton broth (CAMHB) was added to 50 μL peptoid solution in CAMHB (prepared by 1:2 serial dilutions). Positive controls contained 50 μL inoculum and 50 μL CAMHB without peptoid. […] MIC values reported were reproducible between three independent experimental replicates, each consisting of two parallel trials.

E. coli ATCC 35218 = test system: E. coli ATCC 35218
Method: as §1, §2, §3

C[C@H](NCC(=O)N(CC(=O)N(CCCCN)CC(=O)N(CC(=O)N(CC(=O)N(CCCCN)CC(=O)N(CC(=O)N(CC(=O)N(CCCCN)CC(=O)N(CC(=O)N(CC(=O)N(CCCCN)CC(=O)N(CC(=O)N(CC(=O)N(CCCCN)CC(=O)N(CC(=O)N(CC(N)=O)[C@@H](C)c1ccccc1)[C@@H](C)c1ccccc1)[C@@H](C)c1ccccc1)[C@@H](C)c1ccccc1)[C@@H](C)c1ccccc1)[C@@H](C)c1ccccc1)[C@@H](C)c1ccccc1)[C@@H](C)c1ccccc1)[C@@H](C)c1ccccc1)[C@@H](C)c1ccccc1)[C@@H](C)c1ccccc1)c1ccccc1 [117 mer, H-Nspe-Nspe-(NLys-Nspe-Nspe)5-NH2]
HD10 (human erythrocytes): 3 µM | HD50 (human erythrocytes): 15 µM | MIC for B. subtilis ATCC 6633 (B. subtilis ATCC 6633; ATCC 6633): 0.78 to 1.6 µM | MIC for E. coli ATCC 35218 (E. coli ATCC 35218): 25 to 50 µM

CC[C@H](C)[C@H](NC(=O)CN)C(=O)NCC(=O)N[C@@H](C)C(=O)N[C@H](C(=O)N[C@@H](CC(C)C)C(=O)N[C@@H](CCCCN)C(=O)N[C@H](C(=O)N[C@@H](CC(C)C)C(=O)N[C@H](C(=O)N[C@H](C(=O)NCC(=O)N[C@@H](CC(C)C)C(=O)N1CCC[C@H]1C(=O)N[C@@H](C)C(=O)N[C@@H](CC(C)C)C(=O)N[C@H](C(=O)N[C@@H](CO)C(=O)N[C@@H](Cc1c[nH]c2ccccc12)C(=O)N[C@H](C(=O)N[C@@H](CCCCN)C(=O)N[C@@H](CCCNC(=N)N)C(=O)N[C@@H](CCCCN)C(=O)N[C@@H](CCCNC(=N)N)C(=O)N[C@@H](CCC(N)=O)C(=O)N[C@@H](CCC(N)=O)C(N)=O)[C@@H](C)CC)[C@@H](C)CC)[C@@H](C)O)[C@@H](C)O)C(C)C)C(C)C [melittin, reference compound]
MIC for B. subtilis ATCC 6633 (B. subtilis ATCC 6633; Table 8, CAMHB): 1.6 µM
